Biological target: T1, NirA (PA4130) (Pseudomonas aeruginosa, UniProt Q9HWQ1)
T1 construct: IMAC and SEC
Format: biochemical
Conditions: anaerobic; methyl viologen as electron donor

Chains of the proteins cited; added tags and fusions are not shown.
UniProt Q9HWQ1, entry or part of it: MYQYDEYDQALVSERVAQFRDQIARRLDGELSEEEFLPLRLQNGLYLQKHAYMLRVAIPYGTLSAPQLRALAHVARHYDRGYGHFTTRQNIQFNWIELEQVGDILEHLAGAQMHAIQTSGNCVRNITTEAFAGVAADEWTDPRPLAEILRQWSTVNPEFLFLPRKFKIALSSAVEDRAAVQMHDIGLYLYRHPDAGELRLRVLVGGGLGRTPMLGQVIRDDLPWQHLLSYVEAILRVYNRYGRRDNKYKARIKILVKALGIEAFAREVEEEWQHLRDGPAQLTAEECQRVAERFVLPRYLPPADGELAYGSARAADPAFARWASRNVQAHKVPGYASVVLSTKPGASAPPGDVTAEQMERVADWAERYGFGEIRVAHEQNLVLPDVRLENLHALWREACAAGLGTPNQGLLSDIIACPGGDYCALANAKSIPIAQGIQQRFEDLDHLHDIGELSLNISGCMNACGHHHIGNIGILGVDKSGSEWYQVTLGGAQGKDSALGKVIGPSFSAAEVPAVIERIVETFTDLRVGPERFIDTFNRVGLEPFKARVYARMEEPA

Compound: O=NO [potassium nitrite]
- methyl viologen oxidation at 605 nm: Potassium nitrite and hydrogen sulphite were used as electron acceptors for NirA and CysI

Source: PMC12688703, “NirA is a Cyanide‐Tolerant Nitrite Reductase Which Protects Pseudomonas aeruginosa From Self‐Poisoning” (Environmental Microbiology Reports, 2025)
